Experimental data as given in patent US10336731B2, “Substituted 1H-indole-2-carboxamide compounds as indoleamine-2,3-dioxygenase inhibitors” (Merck Sharp & Dohme Corp., priority 2015, dated 2019).

The chains behind the UniProt entries cited, without tags or fusion partners.
UniProt P14902, whole entry: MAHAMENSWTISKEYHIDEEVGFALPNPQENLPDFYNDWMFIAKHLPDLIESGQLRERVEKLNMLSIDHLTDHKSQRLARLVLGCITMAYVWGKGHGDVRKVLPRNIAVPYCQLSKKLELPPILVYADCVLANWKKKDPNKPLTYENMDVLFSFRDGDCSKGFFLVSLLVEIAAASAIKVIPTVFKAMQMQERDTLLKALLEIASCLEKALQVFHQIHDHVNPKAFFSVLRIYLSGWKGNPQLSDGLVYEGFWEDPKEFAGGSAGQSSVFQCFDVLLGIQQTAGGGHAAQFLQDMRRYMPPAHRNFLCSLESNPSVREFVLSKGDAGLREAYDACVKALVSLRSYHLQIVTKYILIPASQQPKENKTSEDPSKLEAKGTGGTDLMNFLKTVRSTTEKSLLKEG

Key:
IDO (SKOV-3 cells) = IDO (SKOV-3 cells) (Homo sapiens (Human), UniProt P14902); assay: IDO cell-based assay (kynurenine production in IFNγ-induced SKOV-3 cells); settings: IFNγ 500 ng/ml, 500 μM L-Trp, 48 h
From the text: (§1) For REF1-REF3 and Compounds 1-11, two different types of assay were employed: 1. An IDO biochemical coupled assay which utilised recombinantly produced and purified IDO enzyme in combination with the enzyme formamidase. This coupled enzyme system allowed conversion of N-formylkynurenine produced by IDO activity to kynurenine which was then quantified by fluorescence following addition of Erhlich's Reagent. 2. A cell-based assay for detecting the effect of test compounds on kynurenine production in cancer cells. This assay utilised cancer cells which expressed IDO and as such was used as a means of testing compound activity at the enzyme in a cell-based context. The protocols for these are set out below.
SKOV-3 ovary adenocarcinoma (ATCC) cells were grown in McCoys 5A+L-glutamax medium supplemented with 15% foetal bovine serum. On the day of assay, cells were detached using trypsin-EDTA (0.25% v/v), re-suspended in assay media (RPMI 1640 phenol red free+L-glutamine supplemented with 10% dialysed foetal bovine serum). SKOV-3 cells were seeded at 40K cells per well into 96-well plates containing test samples/vehicle control together with 500 μM L-Trp. Cells were then incubated for 48 h at 37° C. 5% CO2. IFNγ was also added at 500 ng/ml for the 48 h incubation in order to induce expression of IDO. Plates were centrifuged and the supernatant was removed and incubated for 5 min in the presence of 1% Erhlich's reagent. Kynurenine levels were then quantified by measuring absorbance at 490 nm.

human IDO protein = human IDO protein (Homo sapiens (Human), UniProt P14902); assay: IDO biochemical coupled assay (formamidase, Ehrlich's reagent); settings: 0.17 μM human IDO, 120 min pre-incubation, 45 μM L-Trp
From the text: as §1
0.17 μM of human IDO protein was pre-incubated for 120 min at RT with test compounds in the presence of 50 mM KPO4, pH 7.0, 0.5 mM EDTA, 0.5 mM EGTA, 0.05% Triton X-100, 20 mM ascorbate, 500 U/ml catalase, 10 μM methylene blue at RT in a 384 well plate. 0.05 μg/μl kynurenine formamidase and 45 μM L-tryptophan (L-Trp) were added and the assays were incubated at RT for 40 min. Assays were stopped and the level of kynurenine was determined by incubation with Ehrlich's reagent to a final concentration of 1.33% at RT for 5 min. Fluorescence intensity was read at 475 nm/530 nm.

| Compound | pIC50, IDO cellular assay (SKOV3) (IDO (SKOV-3 cells)) | hIDO biochemical assay pIC50 (human IDO protein) |
| --- | --- | --- |
| CC1CC1(NC(=O)c1cc2c(F)c(Cl)ccc2[nH]1)c1cnn(C)c1 (racemic) | 7.06 | 5.87 |
| CC1CC1(NC(=O)c1cc2cc(Cl)ccc2[nH]1)c1cnn(C)c1 (racemic) | 7.10 | 5.90 |
| CC1CC1(NC(=O)c1cc2cc(Cl)ccc2[nH]1)c1cnn(C)c1 (single isomer, unassigned) [Compound 1, (+) 1] | 7.38 | 6.40 |
| CC1CC1(NC(=O)c1cc2cc(Cl)ccc2[nH]1)c1cnn(C)c1 (single isomer, unassigned) [Compound 1, (−) 1] | 6.44 | 5.77 |

Next, values leading:

| pIC50, IDO cellular assay (SKOV3) (IDO (SKOV-3 cells)) | hIDO biochemical assay pIC50 (human IDO protein) | Compound |
| --- | --- | --- |
| 7.67 | 6.42 | C[C@@H]1C[C@]1(NC(=O)c1cc2cc(Br)ccc2[nH]1)c1cnn(C)c1 (single isomer, unassigned) [Compound 2, (+) 2] |
| 6.55 | 5.54 | C[C@@H]1C[C@]1(NC(=O)c1cc2cc(Br)ccc2[nH]1)c1cnn(C)c1 (single isomer, unassigned) [Compound 2, (−) 2] |
| 7.73 |  | CC1CC1(NC(=O)c1cc2cc(Cl)ccc2[nH]1)c1cnn(-c2ccccc2)c1 (single isomer, unassigned) [Compound 8, enantiomer 1] |
| 7.83 |  | CC1CC1(NC(=O)c1cc2cc(Cl)ccc2[nH]1)c1cnn(-c2ccccc2)c1 (single isomer, unassigned) [Compound 8, enantiomer 2] |
